The values below are quoted from earlier work in US20180177777A1, “FORMULATIONS FOR MITIGATING OPIOID OVERDOSE AND METHODS OF MAKING AND USING THE SAME” (priority 2016, published 2018).

SMILES strings stand for the structures.

For the data set the following is noted: intranasal naloxone.

`C=CCN1CC[C@]23c4c5ccc(O)c4O[C@H]2C(=O)CC[C@@]3(O)[C@H]1C5` [naloxone]: the “half-life (t1/2)” value is 2.08 h.
